Target: URAT1 (SLC22A12) (Homo sapiens (Human), UniProt Q96S37)
Experiment: URAT1 (SLC22A12) cellular uptake assay, 3H-orotate transport in stably transfected URAT-1/CHO cells
Details: for URAT1 inhibition (in words): bifunctional compounds; for URAT1 inhibition compared with lesinurad: comparison in words

Sequences of proteins named here, by UniProt entry; tags and fusion partners are left off. A change or cut given only in a name is not applied to a line headed by its entry.
UniProt Q96S37: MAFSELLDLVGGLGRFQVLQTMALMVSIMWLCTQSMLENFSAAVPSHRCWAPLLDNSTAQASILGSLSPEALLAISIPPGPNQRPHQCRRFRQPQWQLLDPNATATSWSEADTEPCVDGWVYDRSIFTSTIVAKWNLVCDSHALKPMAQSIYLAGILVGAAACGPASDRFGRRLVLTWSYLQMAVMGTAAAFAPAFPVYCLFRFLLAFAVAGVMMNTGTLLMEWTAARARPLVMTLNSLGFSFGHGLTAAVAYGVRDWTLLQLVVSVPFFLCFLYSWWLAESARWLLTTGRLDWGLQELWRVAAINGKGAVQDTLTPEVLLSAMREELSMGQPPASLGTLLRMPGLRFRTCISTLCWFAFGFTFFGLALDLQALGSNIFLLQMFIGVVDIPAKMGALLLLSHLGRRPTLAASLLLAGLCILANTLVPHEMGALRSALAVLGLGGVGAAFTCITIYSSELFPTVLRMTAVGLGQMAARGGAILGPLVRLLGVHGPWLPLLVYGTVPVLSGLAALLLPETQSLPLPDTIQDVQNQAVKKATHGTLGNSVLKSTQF

Row | SMILES | URAT1 inhibition (in words) | URAT1 inhibition compared with lesinurad
1 | O=C(Nc1ccc(-c2cc(O)n[nH]2)cc1)c1c(O)[nH]c(=O)[nH]c1=O [Formula (Ii), 6-hydroxy-N-(4-(3-hydroxy-1H-pyrazol-5-yl)phenyl)-2,4-dioxo-1,2,3,4-tetrahydropyrimidine-5-carboxamide] | potent inhibitors of URAT1 | –
2 | O=C(Nc1ccc(-c2c[nH]nn2)cc1C(F)(F)F)c1c(O)[nH]c(=O)[nH]c1=O [Formula (Ih), N-(4-(1H-1,2,3-triazol-5-yl)-2-(trifluoromethyl)phenyl)-6-hydroxy-2,4-dioxo-1,2,3,4-tetrahydropyrimidine-5-carboxamide] | potent inhibitors of URAT1 | more potent inhibitors of URAT1 than lesinurad
3 | O=C(Nc1ccc(-c2c[nH]nn2)c(C(F)(F)F)c1)c1c(O)[nH]c(=O)[nH]c1=O [Formula (Ig), N-(4-(1H-1,2,3-triazol-5-yl)-3-(trifluoromethyl)phenyl)-6-hydroxy-2,4-dioxo-1,2,3,4-tetrahydropyrimidine-5-carboxamide] | potent inhibitors of URAT1 | more potent inhibitors of URAT1 than lesinurad
4 | O=C(Nc1ccc(-c2nn[nH]c2-c2ccccc2)cc1)c1c(O)[nH]c(=O)[nH]c1=O [Formula (Ic), 6-hydroxy-2,4-dioxo-N-(4-(4-phenyl-1H-1,2,3-triazol-5-yl)phenyl)-1,2,3,4-tetrahydropyrimidine-5-carboxamide] | – | more potent inhibitors of URAT1 than lesinurad
